Reference: patent publication US8455439B2, “Antidotes for factor Xa inhibitors and methods of using the same in combination with blood coagulating agents” (Portola Pharmaceuticals, Inc., priority 2008, dated 2013)
Several values for one entry are separate records, joined by “and”; a condition that tells them apart may be missing. Equal values may be shown once.

Test system: male C57Bl/6 mice
Test: In vivo mouse model, PK-PD of betrixaban with antidote
Conditions: for % Correction: INR
Experimental: 15 mg/kg was used for antidote treated group. A single intravenous (IV) injection of antidote (300 ug/200 μL) or vehicle (normal saline, 200 μL) was administered 5 minutes prior to the 1.5 hr. time point.
Blood samples (0.5 mL) were obtained in 50 μL trisodium citrate. Whole blood INR was measured using Hemochron Jr. cartridges (International Technidyne Corporation) per the manufacturer's instructions.
15 mg/kg was used for antidote (300 pg/200 μL) treated group.
Vehicle (control—1) or r-Antidote (1 injection) was administered 5 min prior to the 1 hr. time point. […] Mouse blood samples were taken at 2 hr. for vehicle (control—2) and r-Antidote (2 injections) treated mice.

B1: r-Antidote: fXa derivative lacking amino acid residues 6-39 of SEQ ID NO. 3, S379A, expressed in CHO cells, linker removed (SEQ ID NO. 13) (protein)
chain: ANSFLFWNKYKDGDQCETSPCQNQGKCKDGLGEYTCTCLEGFEGKNCELFTRKLCSLDNGDCDQFCHEEQNSVVCSCARGYTLADNGKACIPTGPYPCGKQTLERIVGGQECKDGECPWQALLINEENEGFCGGTILSEFYILTAAHCLYQAKRFKVRVGDRNTEQEEGGEAVHEVEVVIKHNRFTKETYDFDIAVLRLKTPITFRMNVAPACLPERDWAESTLMTQKTGIVSGFGRTHEKGRQSTRLKMLEVPYVDRNSCKLSSSFIITQNMFCAGYDTKQEDACQGDAGGPHVTRFKDTYFVTGIVSWGEGCARKGKYGIYTKVTAFLKWIDRSMKTRGLPKAKSHAPEVITSSPLK
% Correction (Mean, r-Antidote treated mice): 77.3% | % Correction (individual r-Antidote treated mice): 50.0% and 94.1% and 80.0% and 93.6% | Betrixaban (Mean of 4 r-Antidote treated mice): 381 ng/mL | Measured INR (Mean, r-Antidote treated mice): 1.3 | further increase of betrixaban level in plasma vs single injection (second IV injection r-Antidote 312 ug, 2 hr, FIG. 22A): less than 2 fold | increase of betrixaban level in plasma vs vehicle control (single IV injection r-Antidote 312 ug, betrixaban 15 mg/kg PO, 1 hr, FIG. 22A): more than 8 fold | correction of ex vivo whole blood INR / reduction of functional betrixaban (single injection r-Antidote 300 μg IV after betrixaban 15 mg/kg PO, mice): > 50%
